{
  "source": "paper PMC4838304",
  "about": "“Effective Design of Multifunctional Peptides by Combining Compatible Functions” (PLoS Computational Biology, 2016)",
  "key": {"BY4741 yeast cells": {"system": "BY4741 yeast cells", "assay": "Internalization assay in yeast, confocal microscopy", "format": "cell-based, Saccharomyces cerevisiae", "conditions": "TAMRA-labeled versions, 60 μM, BY4741, pictures at 0, 10 and 20 min", "text": "We first evaluated whether the designed peptides retained the activity of the templates. The presence of the NLS sequence may locate peptides in the nuclei of cells; for that to happen first the peptides have to be internalized. […] For yeast cells, confocal microscopy was used to evaluate CPP activity in our peptides (see Fig 2).\nFig 2 Designed peptides internalized into yeast cells. (A-F) Internalization assays in BY4741 yeast cells for peptide controls where Arg and Lys residues were replaced by Glu residues (A-C) and the original peptides (D-F). All peptides were used at 60 μM (final concentration) and labeled with the TAMRA fluorophore (see Table 1 and Materials and Methods for further details).\nAll 6 fluorogenic peptides (TAMRA-peptides, see Table 1) were prepared to 600μM in water as a 10X stock solution. Although all the peptides were apparently soluble in water, they all formed aggregates under the microscope. […] These samples were observed under a multi-photon confocal microscope (Olympus FV1000) and pictures were recorded at 0, 10 and 20 min after the peptide addition. […] Bright field images were chosen from the in-focus z-stack, whereas TAMRA images denote the average fluorescence across the entire z-stack to obtain the fluorescence inside the entire cell volume. Images were analyzed using Fiji (http://fiji.sc/Downloads#Fiji)."}, "pGREG546 plasmid": {"system": "pGREG546 plasmid", "assay": "Electrophoretic mobility shift assay (EMSA), DNA retention", "format": "binding", "conditions": "1μg pGREG546, DNA to peptide charge ratio 1:1 or 1:4, 30 minutes", "text": "To test the ability of the designed peptides to bind nucleic acids, we evaluated by electrophoretic mobility shift assays (EMSAs) the retention of DNA by the designed peptides. Each EMSA was executed with peptide quantities that were multiples of the DNA to peptide charge ratio. A DNA to peptide charge ratio of 1:1 is represented by the number of positive charges of the peptide required to neutralize the negative charges of the DNA backbone. Retention in the gel is an indirect measure of the fraction of positive charges within the peptide participating in binding the DNA molecules. All EMSA assays were performed using the yeast plasmid pGREG546. As negative control, pGREG546 without any peptide was used, and as positive control the known DNA-binding cell penetrating peptide MPG was used. […]\nFig 4 DNA binding. (A) Quantification of DNA retention obtained from three independent electrophoretic mobility shift assays. […]\n1μg of pGREG546 plasmid was pre-incubated with the required quantity of each peptide to result in a 1:1 or 1:4 peptide charge to DNA charge ratio. […] DNA affinity was quantified by measuring the mean pixel intensity of the DNA bands with Fiji (http://fiji.sc) and normalizing to the intensity range between an empty spot on the gel and the intensity of the pGREG546 plasmid without any added peptide. […]"}, "[1]": {"system": "Escherichia coli strain DH5α", "format": "cell-based", "conditions": "12 h"}, "[2]": {"system": "Escherichia coli strain DH5α", "format": "cell-based", "text": "If CPP, DNA binding and AMP activities are compatible, the designed peptides should inhibit bacterial growth. Here we exposed E. coli DH5α cells to varying low concentrations of the designed peptides as well as several controls (see Fig 4). […] To test whether α-factor was important for AMP activity we also tested pure α-factor, pure NLS, the optimized NLS fitting CPP rules (NLS-CE) and the Iztli-1 peptide, a previously reported peptide with an embedded α-factor specifically designed to have antibacterial activity. […] A linear trend could be observed between concentration and growth inhibition (regression lines with standard deviations shown in Fig 6). […]\nFig 6 Antibacterial activity. […] The relative area under the growth curve measured the growth inhibition. […]\nEscherichia coli strain DH5α was grown for 12 hours to mid-log phase and diluted to 8·10^5 cells/ml by using the reference OD obtained by absorption spectroscopy. […] Growth curves were measured on two 96 well half area plates with two replicates each followed for 24h using a plate reader (Synergy, USA). […]\nUsing the slope of the linear regressions determined in these experiments, we estimated the minimal inhibitory concentration (MIC) for E. coli of our 3 CPP designed peptides (α-NLS-C, NLS-α-CE and chimera) and tested it experimentally."}, "[3]": {"system": "pheromone-signaling pathway (Fus1-eGFP) in MATa cells", "assay": "Pheromone signaling assay, Fus1-GFP expression and shmoo phenotype", "format": "cell-based, Saccharomyces cerevisiae", "conditions": "BY4741 fus1::eGFP, 60 μM peptide (20 μM for α-factor), 3h", "procedure": "Finally, the activity of the α-factor embedded in the peptides was evaluated by activation of the pheromone-signaling pathway in MATa cells of S. cerevisiae. We monitored the pheromone signaling activity by following the expression of the GFP-labeled Fus1 protein. Fus1 is among the proteins with the highest pheromone-induced expression and is required for cell-cell fusion during mating. […] The observed phenotype was consistent with the activation of signaling showing a mating protrusion, often called “shmoo” as well as the absence of budding due to inhibition of the Cdc28 cyclin [35, 36].\nFig 5 Pheromone activity. The pheromone signaling pathway is confirmed by the expression of Fus1-GFP, characteristic “shmoo” phenotype and the absence of budding observed in differential interference contrast (DIC) bright field. Concentrations were 20 μM for α-factor and 60 μM for all other peptides. The negative control was water without any peptide.\nPheromone signaling induction in Saccharomyces cerevisiae was measured by induction of eGFP fluorescence in a BY4741 strain containing the Fus1-eGFP construct in place of the wild type Fus1 (MATa his3Δ1 leu2Δ0 met15Δ0 ura3Δ0 fus1::eGFP HIS3MX6, obtained from the yeast GFP collection). The BY4741 fus1::eGFP strain was grown overnight in YPD to mid-log phase and diluted to 10^6 cells/mL. […] Images were analyzed using Fiji (www.fiji.sc). […]"}},
  "data": [
    {"smiles": "CSCC[C@H](NC(=O)[C@@H]1CCCN1C(=O)[C@H](CCC(N)=O)NC(=O)CNC(=O)[C@@H]1CCCN1C(=O)[C@H](CCCCN)NC(=O)[C@H](CC(C)C)NC(=O)[C@H](CCC(N)=O)NC(=O)[C@H](CC(C)C)NC(=O)[C@H](Cc1c[nH]c2ccccc12)NC(=O)[C@H](Cc1c[nH]cn1)NC(=O)[C@H](Cc1c[nH]c2ccccc12)NC(=O)[C@H](CC(C)C)NC(=O)[C@@H](N)CCCNC(=N)N)C(=O)N[C@@H](Cc1ccc(O)cc1)C(=O)N[C@@H](Cc1c[nH]c2ccccc12)C(=O)N[C@@H](CCCNC(=N)N)C(=O)N[C@@H](CCC(N)=O)C(=O)N1CCC[C@H]1C(=O)N[C@@H](CCCCN)C(=O)N[C@@H](CO)C(=O)N[C@@H](CCCCN)C(=O)N[C@@H](CCCNC(=N)N)C(=O)N[C@@H](CCCCN)C(=O)N[C@H](C(=O)N[C@@H](CCCNC(=N)N)C(=O)N[C@@H](CCCNC(=N)N)C(=O)O)C(C)C", "note": "[α-NLS-C]", "values": [
      {"measurement": "internalization into yeast cells", "setting": "BY4741 yeast cells", "value": "quickly accumulate in the cell membrane and inside the yeast cells"},
      {"measurement": "DNA binding in EMSA, in words", "setting": "pGREG546 plasmid", "value": "effective DNA-binding activity"},
      {"measurement": "E. coli MIC for 100% inhibition", "setting": "[1]", "value": 20, "unit": "µM"},
      {"measurement": "E. coli MIC for 50% inhibition", "setting": "[2]; DH5α, 24 h", "value": 8, "unit": "µM"},
      {"measurement": "concentration showing partial growth inhibition", "setting": "[2]; E. coli DH5α, peptides 0 to 16 μM", "value": 2, "unit": "µM"},
      {"measurement": "pheromone signaling activity (Fus1-GFP expression, phenotype)", "setting": "[3]", "value": "significant induction of expression of Fus1-GFP"}
    ]}
  ]
}
